The nature of series [1]: Microsomal stability, human liver microsomes (predicted hepatic clearance). Particulars: predicted from in vitro microsomal stability data.
The target of a further series is GLP-1R (Homo sapiens, UniProt P43220). Put plainly: GLP-1R activation: cAMP increase in CHO cells stably expressing GLP-1R. It is filed as cell-based. As to conditions: 10 point dose response, 30 minutes incubation.

Sequences of proteins named here, by UniProt entry; tags and fusion partners are left off. Residues count along the entry.
UniProt P43220, 24-463 limits assumed: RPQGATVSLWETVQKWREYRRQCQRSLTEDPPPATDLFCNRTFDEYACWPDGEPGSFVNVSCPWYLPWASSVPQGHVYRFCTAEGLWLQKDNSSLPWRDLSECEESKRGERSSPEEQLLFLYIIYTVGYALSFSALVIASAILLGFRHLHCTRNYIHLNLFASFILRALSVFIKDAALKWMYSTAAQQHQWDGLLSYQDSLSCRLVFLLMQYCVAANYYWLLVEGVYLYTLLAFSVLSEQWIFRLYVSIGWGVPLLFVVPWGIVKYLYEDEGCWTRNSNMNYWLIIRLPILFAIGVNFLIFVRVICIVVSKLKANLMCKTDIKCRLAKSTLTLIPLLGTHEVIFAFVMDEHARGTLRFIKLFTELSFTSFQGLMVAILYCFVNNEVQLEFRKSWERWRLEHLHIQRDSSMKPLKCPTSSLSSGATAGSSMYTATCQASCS

In general, EC50 refers to the concentration needed to bring the measured effect to its halfway point. Lower therefore signals a more potent agent. Regarding `COCCn1cncc1Cn1c(Cc2ccc(-c3cccc(OCc4ccc(C#N)cc4F)n3)cc2F)nc2ccc(C(=O)O)cc21`, the “Predicted Hepatic Clearance (Pred. Cl.)” value in series [1] was 4.5 mL/min/kg. The EC50 at GLP-1R came to 1.1 nM.

For the compound `CC(C)(CC#N)Cn1c(Cc2ccc(-c3cccc(OCc4ccc(C#N)cc4F)n3)cc2F)nc2ccc(C(=O)O)cc21`, the “Predicted Hepatic Clearance (Pred. Cl.)” value in series [1] is 6.33 mL/min/kg. Besides, the concentration for a half-maximal effect (EC50) at GLP-1R was 4.03 nM. With `CC1(Cn2c(Cc3ccc(-c4cccc(OCc5ccc(C#N)cc5F)n4)cc3F)nc3ccc(C(=O)NS(=O)(=O)C4CC4)nc32)CC1`, the “Predicted Hepatic Clearance (Pred. Cl.)” value in series [1] is under 1.83 mL/min/kg. The compound further gave an EC50 on GLP-1R of 72 nM.

`COCC(C1CC1)n1c(Cc2ccc(-c3cccc(OCc4ccc(C#N)cc4F)n3)cc2F)nc2ccc(C(=O)O)cc21` (centres unmarked) came in with an EC50 on GLP-1R of 609 nM. For `COCCn1c(Cc2cc(F)c(-c3cccc(OCc4ccc(C#N)cc4F)n3)cc2F)nc2ccc(OC(C)(C)C(=O)O)cc21`, in series [1], the “Predicted Hepatic Clearance (Pred. Cl.)” value is 3.5 mL/min/kg. Moreover, the EC50 on GLP-1R stood at 259 nM. Regarding `N#Cc1ccc(COc2cccc(-c3cc(F)c(Cc4nc5ccc(C(=O)O)cc5n4CC4CCC4(F)F)cc3F)n2)c(F)c1` (centres unmarked), in series [1], the “Predicted Hepatic Clearance (Pred. Cl.)” value was 1.83 mL/min/kg. In addition, the 50% effective concentration (EC50) at GLP-1R was 2.14 nM. In the case of `N#Cc1ccc(COc2cccc(-c3cc(F)c(Cc4nc5ccc(C(=O)O)cc5n4C[C@@H]4CCO4)c(F)c3)n2)c(F)c1`, the “Predicted Hepatic Clearance (Pred. Cl.)” value in series [1] was 3.25 mL/min/kg. Besides, the EC50 on GLP-1R turned out to be 0.51 nM. On the same counts, the results for `C#Cc1cc(-c2cccc(OCc3ccc(C#N)cc3F)n2)ccc1Cc1nc2ccc(C(=O)O)cc2n1CCOC` are 7.17 mL/min/kg and 10.8 nM. As to `N#Cc1ccc(COc2cccc(-c3ccc(Cc4nc5ccc(C(=O)O)cc5n4CC4(C(F)F)CC4)c(F)c3)n2)c(F)c1`, in series [1], the “Predicted Hepatic Clearance (Pred. Cl.)” value is 3.5 mL/min/kg. The same compound yielded an EC50 at GLP-1R of 1.94 nM.

The values are drawn from patent US11702404B2, “GLP-1R modulating compounds” (priority 2019, dated 2023).
